Test results from patent US20190345250A1, “ANTIBODY DRUG CONJUGATES” (NOVARTIS AG, priority 2013, published 2019).

System: Kato-III cells
Assay: Complement dependent cytotoxicity (CDC) with rabbit complement
Type: cell-based
Conditions: rabbit complement one to six, two hour incubation

Substance: Erbitux
- complement dependent cytotoxicity (CDC): No evidence of CDC
